Data from patent US6503929B1, “Nitrate salt of anti-ulcer medicine” (Nicox S.A., priority 1998, dated 2003).

Test system: rats
Conditions: single dose 100 mg/Kg by oral way in carboxymethylcellulose aqueous suspension 2% w/v; group of 10 rats; observation for 14 days

Substance: cimetidine mononitrate salt [Cimetidine.HNO3]
- toxic symptom presence: In no one of the group animals the toxic symthom presence was noted
